These results are taken from article PMC5365645, “Preclinical Pharmacokinetics and Pharmacodynamic Target of SCY-078, a First-in-Class Orally Active Antifungal Glucan Synthesis Inhibitor, in Murine Models of Disseminated Candidiasis” (Antimicrobial Agents and Chemotherapy, 2017).

The subject of this assay is C. albicans MY1055. The experiment in a line: Immediate treatment murine model of disseminated candidiasis. The conditions noted are these: SCY-078 doses of ≥12.5 mg/kg BID oral.

On to `CC(C)[C@@H](C)[C@@]1(C)CC[C@]2(C)[C@H]3CC[C@@H]4[C@@]5(COC[C@@]4(C)[C@@H](OC[C@](C)(N)C(C)(C)C)[C@H](n4ncnc4-c4ccncc4)C5)C3=CC[C@@]2(C)[C@@H]1C(=O)O` [SCY-078, (1S,4aR,6aS,7R,8R,10aR,10bR,12aR,14R,15R)-15-[[(2R)-2-amino-2,3,3-trimethylbutyl]oxy]-8-[(1R)-1,2-dimethylpropyl]-14-[5-(4-pyridinyl)-1H-1,2,4-triazol-1-yl]-1,6,6a,7,8,9,10,10a,10b,11,12,12a-dodecahydro-1,6a,8,10a-tetramethyl-4H-1,4a-propano-2H-phenanthro[1,2-c]pyran-7-carboxylic acid], for which the “Clearance in kidney fungal burden” value amounted to 100%.
